Laboratory results as given in ChEMBL document CHEMBL4406913, “INCB050465 (Parsaclisib), a Novel Next-Generation Inhibitor of Phosphoinositide 3-Kinase Delta (PI3Kδ)” (ACS Med Chem Lett, 2019).

Biological target: T1, Phosphatidylinositol 4,5-bisphosphate 3-kinase catalytic subunit delta isoform (Homo sapiens, UniProt O00329)
T1 sequence (O00329 whole entry): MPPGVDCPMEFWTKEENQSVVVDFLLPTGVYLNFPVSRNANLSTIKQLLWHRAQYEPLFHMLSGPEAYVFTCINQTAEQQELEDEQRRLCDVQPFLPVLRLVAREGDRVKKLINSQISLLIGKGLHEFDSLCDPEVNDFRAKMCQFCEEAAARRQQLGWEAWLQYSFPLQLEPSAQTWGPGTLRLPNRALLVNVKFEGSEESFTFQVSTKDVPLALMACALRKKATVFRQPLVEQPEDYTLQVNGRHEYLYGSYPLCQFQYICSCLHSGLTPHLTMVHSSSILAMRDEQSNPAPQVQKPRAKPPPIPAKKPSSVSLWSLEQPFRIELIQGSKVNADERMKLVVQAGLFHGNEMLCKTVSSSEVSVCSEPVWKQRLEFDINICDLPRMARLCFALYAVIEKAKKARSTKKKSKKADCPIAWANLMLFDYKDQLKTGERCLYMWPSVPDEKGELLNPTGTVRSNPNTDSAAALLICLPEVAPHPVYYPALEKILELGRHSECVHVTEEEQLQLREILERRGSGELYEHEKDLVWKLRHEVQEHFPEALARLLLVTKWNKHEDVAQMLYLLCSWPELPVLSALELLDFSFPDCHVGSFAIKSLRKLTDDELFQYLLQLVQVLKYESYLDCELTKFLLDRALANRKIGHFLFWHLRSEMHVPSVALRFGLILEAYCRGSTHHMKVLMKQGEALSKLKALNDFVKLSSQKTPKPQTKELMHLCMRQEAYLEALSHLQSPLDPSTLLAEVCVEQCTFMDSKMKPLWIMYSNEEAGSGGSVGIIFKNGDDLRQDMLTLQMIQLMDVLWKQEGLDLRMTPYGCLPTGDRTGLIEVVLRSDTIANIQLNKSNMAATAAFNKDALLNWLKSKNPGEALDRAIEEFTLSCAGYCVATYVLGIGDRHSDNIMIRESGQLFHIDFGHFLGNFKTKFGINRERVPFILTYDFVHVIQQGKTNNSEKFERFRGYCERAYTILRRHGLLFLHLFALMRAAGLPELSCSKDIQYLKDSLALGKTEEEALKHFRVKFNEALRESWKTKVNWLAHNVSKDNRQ

IC50: 3.4 nM
SMILES: Cc1csc2nc([C@H](C)Nc3ncnc4[nH]cnc34)c(-c3cccc(F)c3)c(=O)n12 [DEZAPELISIB]
